# From patent publication US20030228621A1, “Common ligand universal enzyme assay and compositions for use therein” (priority 2002, published 2003)
# Sequences of proteins named here, by UniProt entry; tags and fusion partners are left off. A change or cut given only in a name is not applied to a line headed by its entry.
# UniProt P45568: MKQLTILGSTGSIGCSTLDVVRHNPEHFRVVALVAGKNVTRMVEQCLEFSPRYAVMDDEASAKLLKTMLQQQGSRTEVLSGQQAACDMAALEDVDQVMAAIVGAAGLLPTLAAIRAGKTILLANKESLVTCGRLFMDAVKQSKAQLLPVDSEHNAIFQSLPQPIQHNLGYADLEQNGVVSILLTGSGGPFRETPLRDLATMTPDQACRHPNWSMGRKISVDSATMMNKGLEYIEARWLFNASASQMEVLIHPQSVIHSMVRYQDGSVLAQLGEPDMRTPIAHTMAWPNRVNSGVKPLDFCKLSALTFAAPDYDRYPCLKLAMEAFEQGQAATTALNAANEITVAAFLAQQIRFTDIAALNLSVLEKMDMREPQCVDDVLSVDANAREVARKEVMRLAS
# UniProt P0AEK4: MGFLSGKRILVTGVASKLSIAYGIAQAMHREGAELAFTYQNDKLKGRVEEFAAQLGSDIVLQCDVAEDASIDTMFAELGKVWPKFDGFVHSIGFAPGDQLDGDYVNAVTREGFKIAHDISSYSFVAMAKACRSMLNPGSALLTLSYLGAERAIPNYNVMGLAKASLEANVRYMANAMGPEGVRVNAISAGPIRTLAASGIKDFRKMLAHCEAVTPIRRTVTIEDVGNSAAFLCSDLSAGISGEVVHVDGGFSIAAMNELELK
# Key:
# [1] = molecular target: Deoxy-D-xylulose 5-phosphate reductoisomerase (DOXPR) (Escherichia coli, UniProt P45568); assay: Enzyme activity in presence and absence of varying concentration of dye, DOXPR; type: biochemical; settings: NADPH at sixteen times its Km; read-out: Inhibition (IC50, nM) DOXPR
# Experimental: (§1) In search for specific ligands with potent binding to several dehydrogenases we screened our internal enzyme panel. In brief, activity of the enzymes was measured in the presence and absence of the varying concentration of the dyes.
# In this assay, the oxidoreductase common ligand (NADPH) was employed at a concentration sixteen times its Km value. Use of such a high concentration of oxidoreductase common ligand results in a calculated IC50 value at least 17-fold that of the dissociation constant (Kd).
# [2] = molecular target: Enoyl-acyl carrier protein reductase (EACPR) (Escherichia coli, UniProt P0AEK4); assay: Enzyme activity in presence and absence of varying concentration of dye, EACPR; type: biochemical; settings: read-out: Inhibition (IC50, nM) EACPR
# Experimental: as §1
substance,measurement,setting,value
Reactive Green 5,IC50,[1],270 nM
same,IC50,[2],210 nM
